Data taken from patent US10730826B2, “Ketone inhibitors of lysine gingipain” (CORTEXYME, INC., priority 2016, dated 2020).
Where two headings read alike, the source gives them in different places.

Target: lysine gingipain (Kgp) (Porphyromonas gingivalis (Bacteroides gingivalis), UniProt P72194)
Test: biochemical
Type: biochemical
Procedure: The specific assay conditions were as follows. Buffer: pH=7.5, 100 mM Tris-HCl, 75 mM NaCl, 2.5 mM CaCl2), 10 mM cysteine, 1% DMSO after all additions. Protein: 0.1 nM Kgp, isolated from culture of Porphyromonas gingivalis, as described by Pike et al. (J. Biol. Chem. 1994, 269(1), 406), and Potempa and Nguyen (Current Protocols in Protein Science. 2007, 21.20.1-21.20.27). Fluorogenic substrate: 10 μM Z-His-Glu-Lys-MCA. Time=90 minutes. Temperature=37° C.
Further assays to measure the inhibitory activity of compounds of the present invention against Kgp and cathepsins B, H, K, L, and S were conducted as described in Example 66. The capacities of the compounds to inhibit the activity of cathepsins F, V, and Z were also measured.

[1] = Table 3, read-out: IC50 (nM) Kgp

Work on `NCCCC[C@H](NC(=O)C1CCCC1)C(=O)COc1c(F)ccc(F)c1F` (racemic) [1a - non-racemic] yielded an IC50 [1] of at most 0.05 nM.

`NCCCCC(NC(=O)C1CCCC1)C(=O)COc1c(F)ccc(F)c1F` (racemic) [Example 3, racemic N-(7-amino-2-oxo-1-(2,3,6-trifluorophenoxy)-heptan-3-yl)cyclopentanecarboxamide] showed an IC50 [1] of at most 0.05 nM.

In the case of `NCCCC[C@@H](NC(=O)C1CCCC1)C(=O)COc1c(F)ccc(F)c1F` [Compound 21], the IC50 (IC50 (nM) Kgp, Table 4) is reported as 0.09 nM.
